Measured values: ChEMBL document CHEMBL4152230, “Discovery of N-{3-[(ethanimidoylamino)methyl]benzyl}-l-prolinamide dihydrochloride: A new potent and selective inhibitor of the inducible nitric oxide synthase as a promising agent for the therapy of malignant glioma” (Eur J Med Chem, 2018)

Chains of the proteins cited; added tags and fusions are not shown.
UniProt P29476, whole entry: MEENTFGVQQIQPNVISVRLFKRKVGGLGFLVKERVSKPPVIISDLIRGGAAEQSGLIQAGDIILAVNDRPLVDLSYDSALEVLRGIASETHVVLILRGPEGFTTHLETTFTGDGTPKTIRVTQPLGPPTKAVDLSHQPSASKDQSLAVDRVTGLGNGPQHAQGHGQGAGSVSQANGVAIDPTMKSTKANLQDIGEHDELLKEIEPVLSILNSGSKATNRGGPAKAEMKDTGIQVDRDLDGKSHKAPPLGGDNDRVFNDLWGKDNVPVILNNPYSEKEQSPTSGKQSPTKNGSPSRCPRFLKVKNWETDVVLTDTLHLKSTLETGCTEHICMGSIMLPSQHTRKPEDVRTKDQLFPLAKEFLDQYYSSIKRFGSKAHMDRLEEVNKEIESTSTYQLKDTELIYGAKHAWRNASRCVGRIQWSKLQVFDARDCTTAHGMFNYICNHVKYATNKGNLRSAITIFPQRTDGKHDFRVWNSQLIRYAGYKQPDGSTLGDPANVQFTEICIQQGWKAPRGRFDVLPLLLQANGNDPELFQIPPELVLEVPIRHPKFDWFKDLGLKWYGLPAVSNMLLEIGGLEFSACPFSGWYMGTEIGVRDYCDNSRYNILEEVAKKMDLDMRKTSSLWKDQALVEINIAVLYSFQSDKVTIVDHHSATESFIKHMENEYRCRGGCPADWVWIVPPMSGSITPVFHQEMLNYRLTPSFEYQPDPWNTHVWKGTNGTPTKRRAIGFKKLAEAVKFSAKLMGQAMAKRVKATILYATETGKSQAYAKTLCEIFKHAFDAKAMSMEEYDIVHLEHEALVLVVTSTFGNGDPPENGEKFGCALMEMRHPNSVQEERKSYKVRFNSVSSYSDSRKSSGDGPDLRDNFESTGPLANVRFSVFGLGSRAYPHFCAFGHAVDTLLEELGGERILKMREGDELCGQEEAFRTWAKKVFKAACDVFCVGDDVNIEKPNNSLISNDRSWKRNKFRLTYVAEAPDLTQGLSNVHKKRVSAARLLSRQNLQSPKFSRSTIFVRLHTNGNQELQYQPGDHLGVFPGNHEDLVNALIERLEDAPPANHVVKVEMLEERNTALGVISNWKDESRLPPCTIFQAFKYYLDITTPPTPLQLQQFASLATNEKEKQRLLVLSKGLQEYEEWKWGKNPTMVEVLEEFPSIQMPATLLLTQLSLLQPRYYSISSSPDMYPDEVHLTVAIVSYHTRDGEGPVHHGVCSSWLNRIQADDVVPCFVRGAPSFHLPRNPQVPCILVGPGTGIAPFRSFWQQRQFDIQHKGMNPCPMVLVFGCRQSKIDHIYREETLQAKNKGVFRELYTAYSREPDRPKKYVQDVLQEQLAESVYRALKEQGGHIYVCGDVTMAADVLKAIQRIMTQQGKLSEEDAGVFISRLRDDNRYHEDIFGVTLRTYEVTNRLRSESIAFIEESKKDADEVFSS

Tests used:
[1] = biological target: T1, Nitric oxide synthase 3 (Bos taurus, UniProt P29473); experiment: Inhibition of recombinant bovine eNOS using [3H]L-arginine as substrate preincubated for 15 mins followed by NADPH addition measured after 20 mins in presence of FMN/FAD by liquid scintillation counting method
T1 sequence (P29473 whole entry): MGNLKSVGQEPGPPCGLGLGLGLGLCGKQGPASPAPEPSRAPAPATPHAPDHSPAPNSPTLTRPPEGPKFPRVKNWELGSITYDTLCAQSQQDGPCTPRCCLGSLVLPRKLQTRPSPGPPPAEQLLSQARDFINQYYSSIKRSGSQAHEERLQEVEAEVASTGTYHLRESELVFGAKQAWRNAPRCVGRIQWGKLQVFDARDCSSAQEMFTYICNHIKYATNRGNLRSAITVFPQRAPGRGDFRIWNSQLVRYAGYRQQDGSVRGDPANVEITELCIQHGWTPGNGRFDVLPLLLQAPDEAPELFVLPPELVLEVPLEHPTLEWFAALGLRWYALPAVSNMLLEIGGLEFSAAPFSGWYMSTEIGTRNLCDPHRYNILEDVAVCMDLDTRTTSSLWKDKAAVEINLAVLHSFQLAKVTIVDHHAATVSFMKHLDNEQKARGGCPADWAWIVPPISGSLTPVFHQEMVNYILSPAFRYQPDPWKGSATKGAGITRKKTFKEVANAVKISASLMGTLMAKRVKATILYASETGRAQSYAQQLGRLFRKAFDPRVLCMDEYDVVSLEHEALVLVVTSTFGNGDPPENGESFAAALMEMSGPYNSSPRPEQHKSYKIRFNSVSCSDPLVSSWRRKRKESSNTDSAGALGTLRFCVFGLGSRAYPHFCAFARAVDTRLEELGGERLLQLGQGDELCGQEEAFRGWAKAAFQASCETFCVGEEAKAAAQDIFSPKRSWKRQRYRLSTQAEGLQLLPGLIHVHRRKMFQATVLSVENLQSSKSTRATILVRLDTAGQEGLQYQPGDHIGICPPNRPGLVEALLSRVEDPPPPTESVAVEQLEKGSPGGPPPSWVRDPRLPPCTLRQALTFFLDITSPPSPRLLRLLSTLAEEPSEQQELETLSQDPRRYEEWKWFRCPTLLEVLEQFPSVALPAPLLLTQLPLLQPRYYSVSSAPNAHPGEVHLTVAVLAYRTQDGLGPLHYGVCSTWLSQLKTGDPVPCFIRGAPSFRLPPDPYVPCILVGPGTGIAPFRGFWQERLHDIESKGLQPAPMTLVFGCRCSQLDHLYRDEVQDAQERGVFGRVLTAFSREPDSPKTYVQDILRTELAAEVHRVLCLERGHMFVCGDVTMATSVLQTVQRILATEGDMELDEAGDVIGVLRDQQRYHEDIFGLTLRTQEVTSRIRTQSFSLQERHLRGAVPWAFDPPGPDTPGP

[2] = biological target: Nitric oxide synthase 1 (Rattus norvegicus, UniProt P29476); experiment: Inhibition of recombinant rat nNOS using [3H]L-arginine as substrate preincubated for 15 mins followed by NADPH addition measured after 20 mins in presence of FMN/FAD by liquid scintillation counting method

Compound: CC(=N)NCc1cccc(CN)c1 [1400W]
- IC50 [1]: 384 µM
- IC50 [2]: 7.8 µM
